What was measured:
rHuPH20 = target: T1, rHuPH20 (Homo sapiens, UniProt P38567); settings: stabilizer screen in rHuPH20/insulin formulation ([…] m-cresol, 0.2% phenol, pH 7.3±0.1); 30° C. about one week; semi-quantitative in comparison with NaCl
T1 sequence (P38567 36-482): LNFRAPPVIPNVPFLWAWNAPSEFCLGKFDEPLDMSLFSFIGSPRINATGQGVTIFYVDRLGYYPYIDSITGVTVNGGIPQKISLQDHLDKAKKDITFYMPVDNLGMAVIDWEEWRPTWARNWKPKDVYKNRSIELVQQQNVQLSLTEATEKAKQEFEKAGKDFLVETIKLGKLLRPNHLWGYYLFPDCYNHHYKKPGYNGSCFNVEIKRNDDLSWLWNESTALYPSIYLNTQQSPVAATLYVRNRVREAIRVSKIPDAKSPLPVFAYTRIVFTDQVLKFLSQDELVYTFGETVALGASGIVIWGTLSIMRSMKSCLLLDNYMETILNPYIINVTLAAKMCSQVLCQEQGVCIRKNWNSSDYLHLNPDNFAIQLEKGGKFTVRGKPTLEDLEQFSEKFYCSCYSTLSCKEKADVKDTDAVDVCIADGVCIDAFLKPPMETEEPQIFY
Method: The activity of a hyaluronan degrading enzyme can be assessed using methods well known in the art. […] A Hyaluronidase Reference Standard (USP) or National Formulary (NF) Standard Hyaluronidase solution can be used in an assay to ascertain the activity, in units, of any hyaluronidase. In one example, activity is measured using a microturbidity assay. […] The turbidity of the resulting sample is measured at 640 nm after an additional development period.

[1] = RP-HPLC insulin apparent solubility / percent recovery (content); settings: stabilizer screen in rHuPH20/insulin formulation; RP-HPLC on samples stored at 5° C.; semi-quantitative in comparison with NaCl
Method: Apparent solubility was measured as the percent insulin recovery as compared to the initial formulations/conditions.
Samples were prepared by withdrawing 100 μL from each vial at every time point and centrifuging prior to loading. Samples were stored in an autosampler at 4° C. prior to use, and were considered stable for 3 days after preparation. All samples were tested in duplicate.
For insulin, 20 μL was injected for each HPLC run.
To determine the apparent solubility, the peak area of insulin/insulin analog main peak and desamido peak were integrated and combined together to calculate the percentage relative to the standards. […] The data were processed using Design-Expert® 7.0 (StatEase) and the “historical data” feature. Insulin percent purity was expressed as the percent of main insulin versus all insulin species.

## Human serum albumin
rHuPH20
  Effect on rHuPH20 enzymatic activity: No effect
[1]
  Effect on insulin solubility: No effect

From US9993529B2, “Stable formulations of a hyaluronan-degrading enzyme” (Halozyme, Inc., priority 2011, dated 2018)
